Data as given in ChEMBL document CHEMBL1126934, “Non-peptide ligands for opioid receptors. Design of kappa-specific agonists” (J Med Chem, 1993).

Sequences of proteins named here, by UniProt entry; tags and fusion partners are left off. A change or cut given only in a name is not applied to a line headed by its entry.
UniProt P41144: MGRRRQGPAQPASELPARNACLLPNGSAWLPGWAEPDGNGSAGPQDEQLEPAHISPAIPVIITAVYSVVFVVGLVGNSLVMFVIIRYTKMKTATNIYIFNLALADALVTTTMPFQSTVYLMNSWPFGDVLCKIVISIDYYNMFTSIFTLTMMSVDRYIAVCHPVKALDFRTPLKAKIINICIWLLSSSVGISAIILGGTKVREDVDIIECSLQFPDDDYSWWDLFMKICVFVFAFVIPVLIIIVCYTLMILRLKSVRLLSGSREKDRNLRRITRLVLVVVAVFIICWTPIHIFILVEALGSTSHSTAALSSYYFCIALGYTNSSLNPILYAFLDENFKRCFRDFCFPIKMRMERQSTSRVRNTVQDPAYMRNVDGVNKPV
UniProt P33535, whole entry, looked up: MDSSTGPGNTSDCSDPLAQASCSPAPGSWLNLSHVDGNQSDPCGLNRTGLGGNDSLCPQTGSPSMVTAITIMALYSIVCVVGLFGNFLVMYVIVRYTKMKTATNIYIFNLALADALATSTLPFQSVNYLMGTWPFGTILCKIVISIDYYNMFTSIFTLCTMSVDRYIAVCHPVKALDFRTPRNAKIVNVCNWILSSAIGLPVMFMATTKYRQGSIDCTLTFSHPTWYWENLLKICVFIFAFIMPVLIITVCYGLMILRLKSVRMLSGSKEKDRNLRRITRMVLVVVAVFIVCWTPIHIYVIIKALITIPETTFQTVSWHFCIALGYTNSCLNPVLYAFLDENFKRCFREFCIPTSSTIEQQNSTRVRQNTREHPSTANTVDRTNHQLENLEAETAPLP

Assays:
[1] = molecular target: T1, Kappa-type opioid receptor (Cavia porcellus, UniProt P41144); assay: Binding affinity for kappa opioid receptor in absence of 120 mM NaCl and 50 micro M Gpp(NH)p
[2] = molecular target: T1, Kappa-type opioid receptor; assay: Binding affinity for kappa opioid receptor in presence of 120 mM NaCl and 50 micro M Gpp(NH)p
[3] = molecular target: T1, Kappa-type opioid receptor
Mus musculus [4] = assay: Antinociceptive activity determined in vivo in tail flick assay in male Swiss mice with 0.2 mg/kg Naloxone
Mus musculus [5] = assay: Antinociceptive activity determined in vivo in tail flick assay in male Swiss mice with 2.0 mg/kg Naloxone
Mus musculus [6] = assay: Antinociceptive activity determined in vivo in tail flick assay in male Swiss mice with saline
Mu-type opioid receptor = Mu-type opioid receptor (Rattus norvegicus, UniProt P33535); assay: Binding affinity for mu opioid receptor was evaluated by displacing [3H]- diprenorphine
Mus musculus [7] = assay: Antinociceptive activity determined in mouse tail flick assay 30 min after sc injection (peak effect)

Structure (SMILES): CN(C(=O)Cc1ccc(Cl)c(Cl)c1)C1CCCCC1N1CCCC1 (stereo not drawn)
- Ki [1]: 16.5 nM
- Ki [2]: 204 nM
- Ki [3]: 20.5 nM
- Ki (Mus musculus [4]): 0.78 nM
- Ki (Mus musculus [5]): 0.15 nM
- Ki (Mus musculus [6]): 1 nM
- Ki (Mu-type opioid receptor): 2130 nM
- ED50 (Mus musculus [7]): 4.52 mg/kg
